{
  "source": "patent US10117912B2",
  "about": "(priority 2013, dated 2018)",
  "tested_on": "MDCKII-wt monolayer membrane",
  "data": [
    {"smiles": "O=C1NC(c2ccccc2)(c2ccccc2)C(=O)N1COP(=O)(O)O", "note": "[fosphenytoin, Fosphenytoin disodium]", "values": [
      {"measurement": "conversion of prodrug to drug by endogenous enzyme", "setting": "fosphenytoin without added enzyme, after 3 hr", "value": "less than 30%"},
      {"measurement": "appearance of prodrug on the basal side", "setting": "fosphenytoin without enzyme", "value": "did not appear on the basal side"}
    ]},
    {"smiles": "O=C1NC(=O)C(c2ccccc2)(c2ccccc2)N1", "note": "[phenytoin]", "values": [
      {"measurement": "CLd, membrane's clearance (permeability-area product)", "setting": "phenytoin saturated solution, no enzyme, pH 7.4, 32° C.", "value": "0.0538 ± 0.0075", "unit": "mL/h"}
    ]}
  ]
}
